## Antibody variant affinities, Ab-14 light chain, assay B

Reference: Li et al. 2023, doi:10.1038/s41467-023-39022-2. File: FLAb, binding data.

Target: peptide PDVDLGDISGINAS, taken from heptad repeat 2 (HR2) of SARS-CoV-2 spike.

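Phage display of a naive human antibody library on the peptide gave the parent. This is the validation round: designs drawn from the data on random variants, tested in the same kind of assay. Several design methods are mixed in this list. In AlphaSeq, yeast of one mating type display the scFv and yeast of the other type display the target. Pairs that bind mate more often; barcode pairs of the diploids are counted by sequencing. Read counts were normalised to the haploid input and turned into Kd by a linear fit to BCL2-family pairs of known affinity, for each replicate. The assay was run in six technical replicates.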

The variants keep the heavy chain, the linker and the frameworks of Ab-14 (scFv order VH, the linker GGGGSGGGGSGGGGS, VL).
VH: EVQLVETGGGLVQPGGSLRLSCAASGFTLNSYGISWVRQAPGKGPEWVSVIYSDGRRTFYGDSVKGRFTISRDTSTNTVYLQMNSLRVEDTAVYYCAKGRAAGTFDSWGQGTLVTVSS
VL: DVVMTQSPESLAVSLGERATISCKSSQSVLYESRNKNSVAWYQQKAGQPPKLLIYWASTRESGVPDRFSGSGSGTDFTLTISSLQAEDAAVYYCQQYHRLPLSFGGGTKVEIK

Sequences are complete VL domains. This list holds designs with more than six substitutions. Each Kd is an estimate from the mating assay, the geometric mean of the replicates in which the pair was seen; lower is stronger. "nd" means that the variant was in the library but no mating with the target was seen in any replicate; the authors take this as a sign of poor binding, and no number exists. As a blank, each scFv also met three strains without target: over all light chain designs, 4% of these pairings were detected, typically at 430 nM and seldom below 38 nM. The control count says in how many pairings with the empty strains this scFv gave a signal.

Variant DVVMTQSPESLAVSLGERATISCKLSMSYRTESENKNSIAWYQQKAGQPPKLLIYELVTRMSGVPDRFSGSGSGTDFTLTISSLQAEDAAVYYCQQYHRLPLSFGGGTKVEIK showed 12 nM (6 of 6 replicates; controls 0 of 18). With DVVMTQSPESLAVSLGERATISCKLGGESYNSTYEMDNVAWYQQKAGQPPKLLIYDVNTTYEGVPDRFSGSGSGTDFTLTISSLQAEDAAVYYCQHYSRLPLTFGGGTKVEIK the result was 29 nM (6 of 6 replicates; controls 1 of 18). For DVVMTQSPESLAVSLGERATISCKLQQGMDYESRNDASVAWYQQKAGQPPKLLIYEASTRESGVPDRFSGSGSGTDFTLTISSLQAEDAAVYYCQQYHRLPLSFGGGTKVEIK, the assay gave 10 nM (6 of 6 replicates; controls 0 of 18). Variant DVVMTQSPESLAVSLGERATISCTLYGLSNSMSINKNSVAWYQQKAGQPPKLLIYEMTTREDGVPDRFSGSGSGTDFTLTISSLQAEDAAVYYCQQYDRLPLVFGGGTKVEIK gave 27 nM (6 of 6 replicates; controls 1 of 18). With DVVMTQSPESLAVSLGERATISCHISQSVGMTSFNKNSVAWYQQKAGQPPKLLIYENSTREDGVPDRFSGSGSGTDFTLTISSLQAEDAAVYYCQQYDRLPLSFGGGTKVEIK the result was nd (0 of 6 replicates; controls 1 of 18). With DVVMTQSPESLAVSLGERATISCKISGMYQKESKNKNSVAWYQQKAGQPPKLLIYEMANRESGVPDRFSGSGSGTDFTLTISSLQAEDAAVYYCQQYDRLPLSFGGGTKVEIK the result was 3.5 nM (6 of 6 replicates; controls 3 of 18). Variant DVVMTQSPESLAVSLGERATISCNMDSQLTHAHENCNSIAWYQQKAGQPPKLLIYNGQLARIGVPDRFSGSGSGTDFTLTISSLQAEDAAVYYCQQYSRLPFSFGGGTKVEIK showed 25 nM (4 of 6 replicates; controls 1 of 18).

Variant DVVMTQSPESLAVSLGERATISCYVSIQAAQDRNQQSSVAWYQQKAGQPPKLLIYGVDYREKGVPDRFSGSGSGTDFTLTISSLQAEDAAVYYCQQYYHLPLSFGGGTKVEIK gave 4.7 nM (6 of 6 replicates; controls 0 of 18). Variant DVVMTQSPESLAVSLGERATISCKLSMSQLYEWRNMNSVAWYQQKAGQPPKLLIYNASTREEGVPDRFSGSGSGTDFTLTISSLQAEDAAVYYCQQYHRLPLSFGGGTKVEIK showed 670 pM (6 of 6 replicates; controls 0 of 18). With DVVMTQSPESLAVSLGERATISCMISQTFLIGMKAKNSVAWYQQKAGQPPKLLIYQTSTREEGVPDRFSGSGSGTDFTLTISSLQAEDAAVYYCQQYDRLPLSFGGGTKVEIK the result was 11 nM (5 of 6 replicates; controls 0 of 18). For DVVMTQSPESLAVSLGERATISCVMFGGLNWGNIEHQAIAWYQQKAGQPPKLLIYNVDMREKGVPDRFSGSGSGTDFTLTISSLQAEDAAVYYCQQYHRLPLQFGGGTKVEIK, the assay gave 310 nM (5 of 6 replicates; controls 0 of 18). Variant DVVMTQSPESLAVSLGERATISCKLSQSWLGEWRNFNSVAWYQQKAGQPPKLLIYHASTREQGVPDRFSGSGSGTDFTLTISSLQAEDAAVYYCQDYHRLPLSFGGGTKVEIK gave 3.1 nM (6 of 6 replicates; controls 1 of 18). For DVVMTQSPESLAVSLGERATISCNMRGVEGEIAQHGNSVAWYQQKAGQPPKLLIYGVDLREAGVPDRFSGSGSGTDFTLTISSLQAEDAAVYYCQQYARLPLHFGGGTKVEIK, the assay gave 6.3 nM (6 of 6 replicates; controls 2 of 18). For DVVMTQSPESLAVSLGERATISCKVSEFMRGLMGRKDSIAWYQQKAGQPPKLLIYDNNTRGSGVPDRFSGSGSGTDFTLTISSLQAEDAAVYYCQQYDRLPLSFGGGTKVEIK, the assay gave 69 nM (6 of 6 replicates; controls 1 of 18).

Variant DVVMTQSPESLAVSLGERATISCKLSMVTGHMSMAKNNVAWYQQKAGQPPKLLIYEMETREKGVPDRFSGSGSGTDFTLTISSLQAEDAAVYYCQQYERLPLSFGGGTKVEIK gave 2.6 nM (6 of 6 replicates; controls 2 of 18). Variant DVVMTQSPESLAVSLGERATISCKIQQSVLYEDRQKNSVAWYQQKAGQPPKLLIYNASDRMSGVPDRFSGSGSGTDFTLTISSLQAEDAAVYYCQQYHRLPLSFGGGTKVEIK gave 2.6 nM (6 of 6 replicates; controls 1 of 18). For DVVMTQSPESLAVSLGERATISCKISINQMDEYKMRSNIAWYQQKAGQPPKLLIYNTSQKAMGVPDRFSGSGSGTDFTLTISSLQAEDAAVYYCQQYFHLPLMFGGGTKVEIK, the assay gave 1.6 nM (6 of 6 replicates; controls 2 of 18). Variant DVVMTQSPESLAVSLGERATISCMISDMGLHDSRIQNSVAWYQQKAGQPPKLLIYNNSTREAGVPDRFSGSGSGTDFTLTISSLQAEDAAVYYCQQYDRLPLTFGGGTKVEIK gave 960 nM (5 of 6 replicates; controls 4 of 18). Variant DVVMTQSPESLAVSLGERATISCHMSMLTLSGQRHRNAVAWYQQKAGQPPKLLIYQMTTRENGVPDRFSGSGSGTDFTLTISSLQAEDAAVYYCQQYDRLPLSFGGGTKVEIK gave 180 nM (5 of 6 replicates; controls 0 of 18). Variant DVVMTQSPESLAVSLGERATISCNLSYRQGEPTNMVNSVAWYQQKAGQPPKLLIYQTSLRAHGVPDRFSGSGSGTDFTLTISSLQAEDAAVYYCQQYHHLPLCFGGGTKVEIK showed 4.7 nM (6 of 6 replicates; controls 6 of 18). For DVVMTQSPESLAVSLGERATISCKVSEFMRGLMMRKDSIAWYQQKAGQPPKLLIYDNVTRNNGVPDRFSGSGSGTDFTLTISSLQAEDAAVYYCQQYDRLPLSFGGGTKVEIK, the assay gave 98 nM (6 of 6 replicates; controls 3 of 18).

Variant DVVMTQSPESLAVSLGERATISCKLSATYRYETQNKNSIAWYQQKAGQPPKLLIYEMTTRESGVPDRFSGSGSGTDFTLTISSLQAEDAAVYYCQCYHRLPLSFGGGTKVEIK gave 3.5 nM (6 of 6 replicates; controls 1 of 18). With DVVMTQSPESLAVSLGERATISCKVSDPMVEWYANQSAVAWYQQKAGQPPKLLIYDHADAQHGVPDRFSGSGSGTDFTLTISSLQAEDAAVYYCQQYDRLPLSFGGGTKVEIK the result was nd (0 of 6 replicates; controls 0 of 18).

A selection of 2 entries from above:

VL,apparent Kd,replicates with signal,control signals
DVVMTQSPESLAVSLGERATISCKVSEFMRGLMGRKDSIAWYQQKAGQPPKLLIYDNNTRGSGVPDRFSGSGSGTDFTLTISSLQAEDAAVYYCQQYDRLPLSFGGGTKVEIK,69 nM,6 of 6,1 of 18
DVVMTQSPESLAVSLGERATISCHISQSVGMTSFNKNSVAWYQQKAGQPPKLLIYENSTREDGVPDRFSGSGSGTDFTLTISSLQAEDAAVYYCQQYDRLPLSFGGGTKVEIK,nd,0 of 6,1 of 18

Of ten entries with the parent sequence, four were seen in most replicates (averages 2.2 nM to 240 nM), three in one and three in none, so single entries are noisy. The authors averaged sequences with at least three values out of six and counted those with two or fewer as poor binders. A sequence measured in both rounds can read differently, since the two assays cover different ranges.